Assay results from US5723464A, “Piperazine derivatives” (American Home Products Corporation, priority 1994, dated 1998).

Sequences of proteins named here, by UniProt entry; tags and fusion partners are left off.
UniProt P19327, whole entry: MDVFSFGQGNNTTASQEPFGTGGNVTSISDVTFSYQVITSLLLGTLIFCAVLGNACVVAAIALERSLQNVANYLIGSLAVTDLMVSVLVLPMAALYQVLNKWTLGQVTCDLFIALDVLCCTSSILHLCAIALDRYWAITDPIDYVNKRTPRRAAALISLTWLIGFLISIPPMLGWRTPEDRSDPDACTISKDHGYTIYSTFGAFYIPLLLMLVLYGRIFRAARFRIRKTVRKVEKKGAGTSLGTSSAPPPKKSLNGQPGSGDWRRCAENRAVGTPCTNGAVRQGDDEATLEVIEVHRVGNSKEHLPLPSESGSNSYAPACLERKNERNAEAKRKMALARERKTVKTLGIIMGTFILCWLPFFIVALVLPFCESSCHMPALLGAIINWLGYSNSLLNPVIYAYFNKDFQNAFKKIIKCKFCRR

How the values were obtained:
5-HT1A receptor [1] = target: T1, 5-HT1A receptor (Rattus norvegicus, UniProt P19327); assay: 5-HT1A receptor binding affinity in rat hippocampal membrane homogenate; conditions: for Ratio 5HT1A / α1 (binding selectivity): ratio of 5-HT1A binding to α1 binding; for IC50: read-out: 5HT1A binding IC50, rat hippocampal membrane homogenate
α1 receptor = α1 receptor binding affinity; conditions: read-out: α1 binding IC50
5-HT1A receptor [2] = target: T1, 5-HT1A receptor; assay: Oral 5-HT1A receptor antagonist activity: antagonism of 8-OH-DPAT syndrome in rats; conditions: for 5-HT1A antagonist activity MED: po, 60 min before i.v. 8-OH-DPAT, lowest dose at which ED50 confidence limits do not overlap vehicle; for 5-HT1A antagonist Ratio (ED50 antagonist @ 3mg/kg po)/ED50 vehicle: ED50 of 8-OH-DPAT (i.v.) after test compound 3 mg/kg p.o. divided by ED50 after vehicle

## COc1ccccc1N1CCN(CCN(C(=O)C(C)(C)C)c2ccccn2)CC1
5-HT1A receptor [1]; tested form: 3HCl
  Ratio 5HT1A / α1 (binding selectivity): 4
  IC50: 60 nM
α1 receptor; tested form: 3HCl
  IC50: 245 nM

## COc1ccccc1N1CCN(CCN(C(=S)C2CCCCC2)c2ccccn2)CC1
5-HT1A receptor [1]; tested form: 2HCl
  Ratio 5HT1A / α1 (binding selectivity): 15.5
  IC50: 1.8 nM
α1 receptor; tested form: 2HCl
  IC50: 28 nM

## O=C(C1CCCCC1)N(CCN1CCN(c2cccc3c2CCCC3)CC1)c1ccccn1
5-HT1A receptor [1]; tested form: 2HCl
  Ratio 5HT1A / α1 (binding selectivity): 69.8
  IC50: 8 nM
α1 receptor; tested form: 2HCl
  IC50: 558 nM
5-HT1A receptor [2]; tested form: 2HCl
  5-HT1A antagonist activity MED: 10 mg/kg

## COc1ccc2cccc(N3CCN(CCN(C(=O)C4CCCCC4)c4ccccn4)CC3)c2c1
5-HT1A receptor [1]; tested form: HCl
  Ratio 5HT1A / α1 (binding selectivity): 10
  IC50: 4 nM
α1 receptor; tested form: HCl
  IC50: 40 nM

## COc1ccccc1N1CCN(CCN(C(=O)C23CC4CC(CC(C4)C2)C3)c2ccccn2)CC1
5-HT1A receptor [1]; tested form: 2HCl
  Ratio 5HT1A / α1 (binding selectivity): 12.4
  IC50: 3.7 nM
α1 receptor; tested form: 2HCl
  IC50: 46 nM
5-HT1A receptor [2]; tested form: 2HCl
  5-HT1A antagonist activity MED: < 10 mg/kg

## Cc1ccccc1N1CCN(CCN(C(=O)C2CCCCC2)c2ccccn2)CC1
5-HT1A receptor [1]; tested form: 2HCl
  Ratio 5HT1A / α1 (binding selectivity): 13
  IC50: 4.9 nM
α1 receptor; tested form: 2HCl
  IC50: 64 nM
5-HT1A receptor [2]; tested form: 2HCl
  5-HT1A antagonist activity MED: 3 to 10 mg/kg

## COc1ccccc1N1CCN(CCN(C(=O)C2CCCCC2)c2nccs2)CC1
5-HT1A receptor [1]; tested form: 2HCl
  Ratio 5HT1A / α1 (binding selectivity): 2.5
  IC50: 90 nM
α1 receptor; tested form: 2HCl
  IC50: 140 nM

## COc1ccccc1N1CCN(C(C)CN(C(=O)C2CCCCC2)c2ccccn2)CC1 (stereo not drawn)
5-HT1A receptor [2]; tested form: 2HCl
  5-HT1A antagonist activity MED: 1 to 3 mg/kg

## O=C(C1CCCCC1)N(CCN1CCN(c2nsc3ccccc23)CC1)c1ccccn1
5-HT1A receptor [1]; tested form: 2HCl
  Ratio 5HT1A / α1 (binding selectivity): 93.9
  IC50: 4.1 nM
α1 receptor; tested form: 2HCl
  IC50: 385 nM
5-HT1A receptor [2]; tested form: 2HCl
  5-HT1A antagonist activity MED: > 10 mg/kg

## O=C(C1CCCCC1)N(CCN1CCN(c2ccccc2F)CC1)c1ccccn1
5-HT1A receptor [1]; tested form: maleate hydrate
  Ratio 5HT1A / α1 (binding selectivity): 19.7
  IC50: 6.4 nM
α1 receptor; tested form: maleate hydrate
  IC50: 126 nM

## COc1ccccc1N1CCN(CCN(C(=O)c2ccccc2)c2ccccn2)CC1
5-HT1A receptor [1]; tested form: 2HCl
  Ratio 5HT1A / α1 (binding selectivity): 19.2
  IC50: 12 nM
α1 receptor; tested form: 2HCl
  IC50: 230 nM
5-HT1A receptor [2]; tested form: 2HCl
  5-HT1A antagonist activity MED: > 10 mg/kg

## COc1cc(F)ccc1N1CCN(CCN(C(=O)C2CCCCC2)c2ccccn2)CC1
5-HT1A receptor [1]; tested form: 3HCl
  Ratio 5HT1A / α1 (binding selectivity): 197
  IC50: 1 nM
α1 receptor; tested form: 3HCl
  IC50: 197 nM
5-HT1A receptor [2]; tested form: 3HCl
  5-HT1A antagonist activity MED: 10 mg/kg

## COc1ccccc1N1CCN([C@H](C)CN(C(=O)C2CCCCC2)c2ccccn2)CC1
5-HT1A receptor [1]
  Ratio 5HT1A / α1 (binding selectivity): 104
  IC50: 3 nM
α1 receptor
  IC50: 312 nM
5-HT1A receptor [2]
  5-HT1A antagonist Ratio (ED50 antagonist @ 3mg/kg po)/ED50 vehicle: 7.4
  5-HT1A antagonist activity MED: 0.3 mg/kg

## O=C(C1CCCCC1)N(CCN1CCN(c2nccc3ccccc23)CC1)c1ccccn1
5-HT1A receptor [1]; tested form: 3HCl
  Ratio 5HT1A / α1 (binding selectivity): 520
  IC50: 2.7 nM
α1 receptor; tested form: 3HCl
  IC50: 1400 nM
5-HT1A receptor [2]; tested form: 3HCl
  5-HT1A antagonist activity MED: 10 mg/kg

## COc1ccccc1N1CCN(CCN(C(=O)N2CCCCC2)c2ccccn2)CC1
5-HT1A receptor [1]; tested form: 3HCl
  Ratio 5HT1A / α1 (binding selectivity): 5.3
  IC50: 14 nM
α1 receptor; tested form: 3HCl
  IC50: 74 nM
5-HT1A receptor [2]; tested form: 3HCl
  5-HT1A antagonist activity MED: 10 mg/kg

## O=C(C1CCCCC1)N(CCN1CCN(c2cccc3ccccc23)CC1)c1ccccn1
5-HT1A receptor [1]; tested form: 2HCl
  Ratio 5HT1A / α1 (binding selectivity): 347
  IC50: 2.3 nM
α1 receptor; tested form: 2HCl
  IC50: 798 nM
5-HT1A receptor [2]; tested form: 2HCl
  5-HT1A antagonist activity MED: 3 mg/kg

## COc1ccc2ccccc2c1N1CCN(CCN(C(=O)C2CCCCC2)c2ccccn2)CC1
5-HT1A receptor [1]; tested form: 2HCl
  IC50: 147 nM

## O=C(C1CCCCC1)N(CCN1CCN(c2ccccc2O)CC1)c1ccccn1
5-HT1A receptor [2]; tested form: HCl
  5-HT1A antagonist Ratio (ED50 antagonist @ 3mg/kg po)/ED50 vehicle: 7.0
  5-HT1A antagonist activity MED: 10 mg/kg

Read-outs that look alike come from different tables or passages of the source.
